Patent publication US20250129103A1, “METHODS FOR TREATMENT OF CANCER” (Frontier Medicines Corporation, priority 2022, published 2025)

Assay: Determination of kinetic solubility (pH 7.4)
Format: physicochemical
Conditions: 50 mM phosphate buffer pH 7.4

Substance: 2-((S)-4-(7-(8-chloro-7-fluoronaphthalen-1-yl)-8-fluoro-2-(((2R,7aS)-2-fluorotetrahydro-1H-pyrrolizin-7a(5H)-yl)methoxy)pyrido[4,3-d]pyrimidin-4-yl)-1-((E)-4-((3aR,6aS)-tetrahydro-1H-furo[3,4-c]pyrrol-5(3H)-yl)but-2-enoyl)piperazin-2-yl)acetonitrile [Example 84]
- Ksol, pH 7.4 (ug/mL): 81.53 ug/mL
